Results published in patent publication US8143408B2, “N-(8-heteroaryltetrahydronaphtalene-2yl) or N-(5-heteroarylchromane-3-yl) carboxamide derivatives for the treatment of pain” (AstraZeneca AB, priority 2007, dated 2012).

Protein sequences, listed by entry. Tags and fused reporters are not part of them.
UniProt Q15858, whole entry: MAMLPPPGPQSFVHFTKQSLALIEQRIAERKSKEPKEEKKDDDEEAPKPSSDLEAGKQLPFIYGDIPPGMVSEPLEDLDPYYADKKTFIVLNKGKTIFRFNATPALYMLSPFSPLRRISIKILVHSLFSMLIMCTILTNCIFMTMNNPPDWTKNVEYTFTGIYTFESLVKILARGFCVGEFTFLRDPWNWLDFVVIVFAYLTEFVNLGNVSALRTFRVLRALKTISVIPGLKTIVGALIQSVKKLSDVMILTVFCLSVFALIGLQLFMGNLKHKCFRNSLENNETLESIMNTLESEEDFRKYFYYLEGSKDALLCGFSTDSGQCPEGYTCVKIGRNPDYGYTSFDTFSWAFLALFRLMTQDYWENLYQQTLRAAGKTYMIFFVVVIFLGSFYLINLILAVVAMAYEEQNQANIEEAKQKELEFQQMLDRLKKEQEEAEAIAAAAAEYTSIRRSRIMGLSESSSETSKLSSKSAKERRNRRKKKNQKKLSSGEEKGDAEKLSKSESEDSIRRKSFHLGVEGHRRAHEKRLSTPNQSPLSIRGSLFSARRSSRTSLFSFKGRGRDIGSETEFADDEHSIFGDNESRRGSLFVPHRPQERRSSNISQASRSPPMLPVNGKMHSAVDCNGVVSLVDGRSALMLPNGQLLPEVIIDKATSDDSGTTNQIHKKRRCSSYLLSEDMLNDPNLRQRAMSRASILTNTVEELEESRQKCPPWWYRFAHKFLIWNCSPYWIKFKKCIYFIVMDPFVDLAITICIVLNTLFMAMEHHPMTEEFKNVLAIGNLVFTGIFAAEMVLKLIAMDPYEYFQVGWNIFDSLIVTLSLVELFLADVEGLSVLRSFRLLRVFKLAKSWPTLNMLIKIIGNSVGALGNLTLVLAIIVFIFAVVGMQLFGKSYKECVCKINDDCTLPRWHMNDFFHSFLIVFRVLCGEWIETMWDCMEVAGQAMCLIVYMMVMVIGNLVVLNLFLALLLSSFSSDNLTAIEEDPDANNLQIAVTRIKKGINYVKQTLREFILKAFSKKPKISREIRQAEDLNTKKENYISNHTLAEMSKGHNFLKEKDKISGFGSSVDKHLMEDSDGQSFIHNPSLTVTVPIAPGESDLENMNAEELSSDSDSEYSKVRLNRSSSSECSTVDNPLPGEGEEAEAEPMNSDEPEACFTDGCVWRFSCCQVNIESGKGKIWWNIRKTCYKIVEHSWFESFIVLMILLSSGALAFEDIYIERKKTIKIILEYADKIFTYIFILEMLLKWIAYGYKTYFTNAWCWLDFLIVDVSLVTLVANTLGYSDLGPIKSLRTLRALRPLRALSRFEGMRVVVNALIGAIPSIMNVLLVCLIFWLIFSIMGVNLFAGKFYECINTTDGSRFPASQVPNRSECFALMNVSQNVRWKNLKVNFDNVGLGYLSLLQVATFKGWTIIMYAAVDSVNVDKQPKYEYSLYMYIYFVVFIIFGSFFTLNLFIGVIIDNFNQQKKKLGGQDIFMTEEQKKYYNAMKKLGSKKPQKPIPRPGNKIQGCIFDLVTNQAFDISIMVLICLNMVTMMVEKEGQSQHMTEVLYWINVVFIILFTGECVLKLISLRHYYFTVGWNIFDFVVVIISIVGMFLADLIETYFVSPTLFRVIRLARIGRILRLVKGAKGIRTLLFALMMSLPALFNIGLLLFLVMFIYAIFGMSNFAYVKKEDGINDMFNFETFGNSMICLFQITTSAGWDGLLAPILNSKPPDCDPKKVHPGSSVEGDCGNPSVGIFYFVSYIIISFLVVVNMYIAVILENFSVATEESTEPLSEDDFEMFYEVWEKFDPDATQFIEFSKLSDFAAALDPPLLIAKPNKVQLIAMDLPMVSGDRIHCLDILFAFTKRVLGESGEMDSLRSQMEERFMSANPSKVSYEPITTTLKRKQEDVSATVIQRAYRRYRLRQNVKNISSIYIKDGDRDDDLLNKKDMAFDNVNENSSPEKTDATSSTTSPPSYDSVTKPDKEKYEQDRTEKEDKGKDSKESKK

Biological target: T1, Nav1.7 voltage-gated sodium channel (Homo sapiens, UniProt Q15858)
T1 construct: Gene(s) encoding the full-length protein of the voltage-gated sodium channel of interest are cloned and expressed; expressed in transfected cells
Test: Whole-cell voltage clamp electrophysiology assay
Type: cell-based
Details: cells stably expressing the voltage-gated sodium channel of interest
Text: Gene(s) encoding the full-length protein of the voltage-gated sodium channel of interest are cloned and expressed under a suitable promoter in a suitable cell line, as well known in the art. […] Suitable screening assays are as follows.
Electrophysiological studies can be performed using automated patch-clamp electrophysiology platforms, like IonWorks HT, IonWorks Quattro, PatchXpress, QPatch or any other suitable platform. […] Suitable extracellular and intracellular buffer for such experiments are applied according to the instructions given by the manufacturer of the automated patch-clamp platforms. Cells that express the voltage-gated sodium channel protein of interest are exposed to drugs through the pipetting system integrated in the platforms. A suitable voltage stimulus protocol is used to activate the voltage-gated sodium channel proteins of interest through depolarisation from a defined holding potential.
Electrophysiological studies can also be performed using the whole cell configuration of the standard patch clamp technique. In this assay, cells that express the voltage-gated sodium channel protein of interest are exposed to the drugs by conventional microperfusion systems and a suitable voltage stimulus protocol is used to activate the voltage-gated sodium channels.

Row | Compound | IC50 [nM]
1 | O=C(N[C@@H]1COc2cccc(-c3cccnc3)c2C1)c1ccc(OC(F)(F)F)cc1 [Example 4, N-[(3S)-5-Pyridin-3-yl-3,4-dihydro-2H-chromen-3-yl]-4-(trifluoromethoxy)-benzamide] | 1260
2 | COc1ncc(-c2cccc3c2C[C@H](NC(=O)c2ccc(OCCC(F)(F)F)nc2)CO3)cn1 [Example 56, N-[(3S)-5-(2-methoxypyrimidin-5-yl)-3,4-dihydro-2H-chromen-3-yl]-6-(3,3,3-trifluoropropoxy)nicotinamide] | 79.4
3 | COc1ncc(-c2cccc3c2C[C@H](NC(=O)c2ccc(OCC(F)(F)F)nc2)CO3)cn1 [Example 86, N-[(3S)-5-(2-methoxypyrimidin-5-yl)-3,4-dihydro-2H-chromen-3-yl]-6-(2,2,2-trifluoroethoxy)nicotinamide] | 79.4
4 | O=C(N[C@@H]1COc2cccc(-c3cccnc3)c2C1)c1ccc(OCC(F)(F)F)nc1 [Example 57, N-[(3S)-5-pyridin-3-yl-3,4-dihydro-2H-chromen-3-yl]-6-(2,2,2-trifluoroethoxy)nicotinamide] | 79.4
